rTrxR1 inhibitor: rat TrxR1 inhibition. O89049. recombinant rTrxR1, NADPH fluorescence consumption, selenite substrate. Potency, µM (highest dose often 114 µM), for the others: at the highest dose activity change, negative = inhibition, most hits filed as inhibitors. 1% of 390,000 active. AID 588453; note: potency is the fitted concentration of half-maximal effect; % is set by controls: 0 for no effect and ±100 for the full control effect; nearly all actives have a fitted effect of over 65% in size
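Rat TrxR1 (90 nM in the dispensed reagent) was pre-reduced with 400 uM NADPH for 5 min at room temperature, then incubated with compound for 15 min. After 400 uM selenite was added, NADPH fluorescence (Ex 340/Em 450 nm) was followed for 8 min.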
Anesthetic bind: binds horse apoferritin like a general anesthetic; apoferritin/1-aminoanthracene competitive binding, fluorescence; P02791; 0.074% of 350,000 active; Potency, µM (highest dose often 77.5 µM), for inactives: at the top dose activity change, negative = displacement, actives largely listed as inhibitors; note: potency is the fitted concentration of half-maximal effect; % is set by controls: 0 for no effect and ±100 for the full control effect; nearly all actives have a fitted effect of over 20% in size
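10 uM apoferritin + 50% sat. 1-AMA, PBS; cpd 10 min RT; Ex380/Em535 endpoint; normalized to free probe vs complex; 4-param Hill fit; propofol titration as pos. ctrl.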
TrxR1 substrate: rat thioredoxin reductase 1 substrate activity | Potency, µM (series often up to 114 µM), for the others: at the highest dose activity change, negative = substrate turnover | purified TrxR1 substrate turnover, NADPH consumption readout | 0.01% of 390,000 active | AID 588456; note: potency is the fitted concentration of half-maximal effect; % is set by controls: 0 for no effect and ±100 for the full control effect; nearly all actives have a fitted effect of over 50% in size
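Rat TrxR1, dispensed at 90 nM, was prereduced with 400 uM NADPH (final) for 5 min at ~22 deg C, then incubated with compound 15 min before 400 uM selenite. A first-read NADPH fluorescence drop versus no-compound background flagged substrates.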
miR-21 FLuc: raises the signal of a miR-21 reporter | HeLa miR-21 FLuc reporter, luciferase, 48 h | 340,000 tested, under 10 active | Potency, µM (titrated, usually from 38.3 µM), inactives show at the highest dose reporter change, positive = more light; active = well fitted rising curve with a large enough effect; inconclusive = small, poorly fitted or top-dose-only effect; inactive = no such curve, though single readings can be large or run the other way;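 further: % of control where 0% means no effect; miR-21 action dims this reporter so a rising signal means less miR-21 action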
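Luminescence from a firefly luciferase reporter carrying a miR-21 binding site downstream, stably expressed under a CMV promoter in HeLa cells that make miR-21 endogenously, reports miRNA modulation after 48 h compound exposure up to approximately 40uM final.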
ClpP mod: qHTS Assay for Activators of ClpP. Potency, µM (titrated, usually from 57.5 µM), inactives show at the top dose activity change, negative = active. 1.9% of 340,000 active. ATP-dependent Clp protease proteolytic subunit (Bacillus subtilis (strain 168)), P80244. AID 651965, 2013. purified B. subtilis ClpP, FRET peptide cleavage, 20 min; active = well fitted falling curve with a large enough effect; inconclusive = small, poorly fitted or top-dose-only effect; inactive = no such curve, though single readings can be large or run the other way; note: potency is the fitted concentration of half-maximal effect; the source files actives as falling curves though it sought activators and does not explain the sign; nearly all actives have a fitted effect of over 65% in size
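Purified B. subtilis ClpP, 10 microg/mL final in Tris/HCl pH8 with KCl, BSA, glycerol and Tween-20, cleaved an Abz/nitrotyrosine-quenched decapeptide. Fluorescence (ex 320, em 430) was read at 0 and 20 min at room temperature. Delta was normalized to 5.8 microM ADEP and DMSO/no-enzyme controls.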
Starred values were filed as active, the others as inactive; ? = inconclusive; . = not tested or not shown; [ ] = another dose, or the depositor's remark. An excerpt weighted towards active compounds, which were near 2.5% of everything screened. Unless noted, calls come from the whole dose curve; as a rule, active = well fitted curve in the direction sought with a large enough effect; inconclusive = small, poorly fitted or top-dose-only effect, or another doubt; inactive = no such curve, though single readings can be large; an effect the other way counts as inactive or inconclusive.

Chains of the proteins cited; added tags and fusions are not shown.
ATP-dependent Clp protease proteolytic subunit (Bacillus subtilis (strain 168)), P80244, UniProt P80244, whole entry, looked up: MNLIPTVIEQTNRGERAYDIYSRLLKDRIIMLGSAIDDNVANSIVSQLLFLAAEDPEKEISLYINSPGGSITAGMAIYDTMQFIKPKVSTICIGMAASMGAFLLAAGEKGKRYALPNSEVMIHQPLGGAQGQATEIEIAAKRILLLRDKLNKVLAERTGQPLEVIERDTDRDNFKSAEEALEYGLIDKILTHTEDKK

#	molecule	TrxR1 substrate	Anesthetic bind	rTrxR1 inhibitor	ClpP mod	miR-21 FLuc
1	O=C(O)c1cc(Cl)c2c(c1)[C@@H]1C=CC[C@@H]1[C@H](c1ccc(S(=O)(=O)N3CCOCC3)cc1)N2	-7.4%	-7.7%	2.24µM*	-2.1%	-8.8%
2	COc1cccc(CN2CCCN(Cc3ccc(F)cc3)S2(=O)=O)c1	1.1%	-9.0%	17.4%	-0.1%	-4.1%
3	CN(C(=O)NC(=O)C1=C(N2CCOCC2)/C(=C/c2ccccc2)CC1)S(C)(=O)=O	70.5%	516.3%	35.5µM*	96.6%	-22.9%
4	CCCCN(C(=O)NC(=O)C1=C(N2CCOCC2)/C(=C/c2ccccc2)CC1)S(C)(=O)=O	112.1%	347.6%	14.1µM*	45.6%	-12.3%
5	CC(C)c1ccc(CNCCSc2nnnn2-c2ccccc2)cc1	-4.0%	5.8%	21.3%	0.8%	11.1%
6	C/C=C1\COC(C(=O)NCc2cccc(OC)c2OC)(C(F)(F)F)C=C1C=C(C)C (stereo not drawn)	-6.1%	-8.9%	-17.9%	.	.
7	C/C=C1\COC(C(=O)NCCN2CCCC2)(C(F)(F)F)C=C1C=C1CCCCC1 (stereo not drawn)	-1.6%	?	6.6%	-5.8%	.
8	C/C=C1\COC(C(=O)NCc2ccccn2)(C(F)(F)F)C=C1C=C(C)C (stereo not drawn)	8.8%	-10.4%	3.98µM*	.	.
9	C/C=C1\COC(C(=O)NCCCN2CCCC2=O)(C(F)(F)F)C=C1C=C(C)C (stereo not drawn)	-5.4%	-4.3%	3.16µM*	-0.1%	.
10	C/C=C1\COC(C(=O)NCc2ccccc2)(C(F)(F)F)C=C1C=C1CCCCC1 (stereo not drawn)	4.8%	-20.8%	1µM*	-3.5%	.
11	O=C(NCCCN1CCOCC1)c1ccc2c(=O)n(CCc3ccccc3)c(=O)[nH]c2c1	1.6%	-7.0%	-10.9%	?	-1.2%
12	CCCCCn1c(=O)[nH]c2cc(C(=O)NCCN3CCOCC3)ccc2c1=O	1.5%	.	?	28.2µM*	.
13	COCCn1c(=O)[nH]c2cc(C(=O)NCCCN3CCN(c4ccc(F)cc4)CC3)ccc2c1=O	4.2%	-7.1%	-5.4%	28.2µM*	0.7%
14	CCCCCn1c(=O)[nH]c2cc(C(=O)NCc3ccccc3)ccc2c1=O	13.6%	-3.5%	34.0%	-24.2%	-9.4%
15	CCCCCn1c(=O)[nH]c2cc(C(=O)NCCCN(CC)CC)ccc2c1=O	12.5%	-12.6%	-4.5%	28.2µM*	-3.2%
16	CCCCCn1c(=O)[nH]c2cc(C(=O)O)ccc2c1=O	10.1%	8.8%	-8.7%	22.4µM*	-5.4%
17	CCOCCCn1c(=S)[nH]c2cc(C(=O)NCCN(CC)CC)ccc2c1=O	-3.3%	-19.5%	-34.4%	-7.2%	-1.2%
18	COc1ccc(S(=O)(=O)N2CCN(CC(=O)Nc3ccc(Cl)c(C(F)(F)F)c3)CC2)cc1	-3.8%[57.1 µM]	-0.8%	12.5%[57.1 µM]	-0.3%	?
19	CCOc1ccc(-c2nc(SC(C(C)=O)C(=O)N(C)C)c3c(=O)n(C)c(=O)n(C)c3n2)cc1 (stereo not drawn)	2.0%[57.1 µM]	-11.5%	16.0%[57.1 µM]	-8.2%	-2.4%
20	COC(=O)c1ccc2c(=O)n(CCCCCC(=O)NCc3ccccn3)c(=O)[nH]c2c1	21.5%	0.0%	-5.9%	31.6µM*	4.4%
21	Cc1cc(C)c(NC(=O)Cn2c(=O)n(CC3CCCO3)c(=O)c3ccccc32)c(C)c1 (stereo not drawn)	-4.3%	-4.8%	-2.4%	-9.9%	3.2%
22	O=C(COc1ccc2ccc(=O)oc2c1)Nc1cccc(S(=O)(=O)N2CCCCC2)c1	20.8%	.	12.7%	35.5µM*	.
23	COc1ccc(S(=O)(=O)N2CCOCC2)cc1NC(=O)COc1ccc2c(C)cc(=O)oc2c1	37.6%	.	20.9%	3.9%	.
24	Cc1ccc(S(=O)(=O)N2CCOCC2)cc1NC(=O)COc1ccc2c(C)cc(=O)oc2c1	49.6%	-22.1%	-11.5%	31.6µM*	10.5%
25	COc1ccc(-c2nnc3ccc(SC(C)C)nn23)cc1OC	-7.1%	.	5.8%	-1.5%	.
26	Cc1cc(SCC(=O)N/N=C/c2ccc(O)c(O)c2)nc2ccccc12	2.7%	?	15.1%	.	-3.3%
27	Cc1cc(SCC(=O)N/N=C/c2ccc(O)c(O)c2)c(C)cc1Br	-3.7%	22.4µM*	11.6%	0.7%	-2.8%
28	CCOc1ccc2[nH]c(SCC(=O)OC)c([N+](=O)[O-])c2c1	-7.9%[57.1 µM]	29.1%	-54.2%	1.1%	-1.2%
29	COC(=O)CSc1[nH]c2ccc(Br)cc2c1[N+](=O)[O-]	6.1%[57.1 µM]	-1.3%	11.2µM*	.	0.0%
30	COc1cc(-c2nc(C(N)=O)c3c(n2)n(-c2cccc(C)c2)c(=O)n3C)cc(OC)c1OC	3.5%[57.1 µM]	3.2%	9.7%[57.1 µM]	22.4µM*	1.0%
31	CC(=O)Nc1ccc(NC(=S)NC(=O)C2CCCC2)cc1	1.1%	-12.5%	?	0.0%	-6.6%
32	CCN(CC)c1ccc(NC(=S)NC(=O)C2CCC2)cc1	7.8%	-15.0%	44.7µM*	-0.9%	-29.7%
33	Cc1cccc(NC(=S)NC(=O)C2CC2)c1	.	22.4µM*	.	.	-36.7%
34	Cc1cc(NC(=S)NC(=O)C2CC2)ccc1Br	1.8%	?	44.7µM*	-1.0%	-38.3%
35	Cc1ccc(OC(C)C(=O)Nc2nonc2-c2ccc(Br)cc2)cc1C (stereo not drawn)	-4.8%	-4.8%	3.4%	-0.1%	-10.8%
36	Cn1ncc(S(=O)(=O)Cc2ccccc2)c(Br)c1=O	20.8%[57.1 µM]	.	0.947µM*	.	.

Excerpt, nos. 28–29
#	molecule	TrxR1 substrate	Anesthetic bind	rTrxR1 inhibitor	ClpP mod	miR-21 FLuc
28	CCOc1ccc2[nH]c(SCC(=O)OC)c([N+](=O)[O-])c2c1	-7.9%[57.1 µM]	29.1%	-54.2%	1.1%	-1.2%
29	COC(=O)CSc1[nH]c2ccc(Br)cc2c1[N+](=O)[O-]	6.1%[57.1 µM]	-1.3%	11.2µM*	.	0.0%

Additional entries
#	molecule	TrxR1 substrate	Anesthetic bind	rTrxR1 inhibitor	ClpP mod	miR-21 FLuc
37	Cc1ccc(CNC(=O)c2ccc(CSCc3ccc(Cl)cc3)o2)cc1	-0.9%[57.1 µM]	44.6%	1.5%[57.1 µM]	0.1%	10.3%
38	Cc1ccc(-n2c(SCC(=O)NCC3CCCO3)nnc2-c2ccoc2C)cc1 (stereo not drawn)	7.8%	-6.0%	8.6%	-0.4%	-1.1%
39	Cc1nnc(SCC(=O)NCC2CCCO2)n1-c1ccccc1 (stereo not drawn)	3.7%	-4.1%	4.9%	0.2%	1.2%
40	Cc1ccc(C)c(-n2c(SCC(=O)NCC3CCCO3)nnc2-c2ccoc2C)c1 (stereo not drawn)	2.8%	-16.3%	28.2µM*	-1.6%	0.9%
41	C=CCn1c(SCC(=O)NCCOC)nc2scc(-c3ccco3)c2c1=O	-2.2%	-16.0%	44.7µM*	1.5%	-8.7%
42	O=C(CSc1nnc(-c2ccco2)n1-c1ccccc1)NCC1CCCO1 (stereo not drawn)	-2.3%	-2.9%	-22.8%	31.6µM*	-4.2%
43	C=CCn1c(SCC(=O)NCC2CCCO2)nc2scc(-c3ccc(OC)cc3)c2c1=O (stereo not drawn)	-15.7%	-11.8%	-11.6%	-1.7%	15.8%
44	CCn1c(SCC(=O)Nc2sc3c(c2C#N)CCC(C(C)(C)C)C3)nnc1-c1ccco1 (stereo not drawn)	-0.9%	28.2µM*	-7.9%	0.3%	0.3%
45	COc1cccc(CNC(=O)c2ccc(-c3nc(COc4ccccc4)c(C)o3)cc2)c1	17.5%	-5.1%	28.4%	4.2%	17.5%

Single entries from above:
rTrxR1 inhibitor with Cc1ccc(C)c(-n2c(SCC(=O)NCC3CCCO3)nnc2-c2ccoc2C)c1 (stereo not drawn) → 28.2µM*
TrxR1 substrate with Cc1nnc(SCC(=O)NCC2CCCO2)n1-c1ccccc1 (stereo not drawn) → 3.7%
ClpP mod with C=CCn1c(SCC(=O)NCC2CCCO2)nc2scc(-c3ccc(OC)cc3)c2c1=O (stereo not drawn) → -1.7%
miR-21 FLuc with O=C(CSc1nnc(-c2ccco2)n1-c1ccccc1)NCC1CCCO1 (stereo not drawn) → -4.2%
ClpP mod with C=CCn1c(SCC(=O)NCCOC)nc2scc(-c3ccco3)c2c1=O → 1.5%

Assay outcomes: PubChem, National Center for Advancing Translational Sciences (NCATS)
